In PubChem BioAssay AID624330 (Southern Research Specialized Biocontainment Screening …, 2012):
The other results are listed elsewhere or left out. Potency and affinity values are given separately. Some structures show a salt or complex split into parts, the way the source records it. Active and inactive are the calls of the source.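 How the source made its calls: active means first-screen hits whose inhibition reached a set limit at any dose in the follow-up dose series; inconclusive means inhibition above the set first-screen limit but never retested; inactive means the rest.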

Amino acid sequences for entries named in this document (tags omitted).
UniProt Q9H0H5, whole entry: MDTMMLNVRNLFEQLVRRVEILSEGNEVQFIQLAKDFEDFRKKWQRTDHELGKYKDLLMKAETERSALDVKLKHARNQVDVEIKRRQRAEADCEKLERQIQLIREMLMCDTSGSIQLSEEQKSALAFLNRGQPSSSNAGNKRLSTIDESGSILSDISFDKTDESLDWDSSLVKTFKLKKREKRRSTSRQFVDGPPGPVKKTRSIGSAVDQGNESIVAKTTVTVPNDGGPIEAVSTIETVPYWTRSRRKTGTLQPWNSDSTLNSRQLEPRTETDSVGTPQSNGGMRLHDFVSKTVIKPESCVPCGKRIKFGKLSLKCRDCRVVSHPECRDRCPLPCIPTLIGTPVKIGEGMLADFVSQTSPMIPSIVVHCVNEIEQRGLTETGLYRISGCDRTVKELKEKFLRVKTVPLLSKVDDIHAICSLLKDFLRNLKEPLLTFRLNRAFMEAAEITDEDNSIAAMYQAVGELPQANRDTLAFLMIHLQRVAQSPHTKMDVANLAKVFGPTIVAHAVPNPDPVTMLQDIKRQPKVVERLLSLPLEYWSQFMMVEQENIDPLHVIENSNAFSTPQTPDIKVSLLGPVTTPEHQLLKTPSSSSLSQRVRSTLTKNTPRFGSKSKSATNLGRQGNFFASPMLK

biological target: Rac GTPase-activating protein 1 (Homo sapiens) (UniProt Q9H0H5); test: MgcRacGAP GTPase-activating activity inhibitors, confirmation, biochemical, ADP Hunter fluorescence, primary and confirmatory (AID 624330); conditions: MgcRacGAP-stimulated Rac1 GTP hydrolysis, at 30 µM, hits give high values, GST-tagged Rac1 F28L mutant substrate;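 further: fluorescence reports GDP produced by GAP-driven GTP hydrolysis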

Structure (SMILES) | inhibition
O=[N+]([O-])c1cc([N+](=O)[O-])c(-n2nnc3ccccc32)c([N+](=O)[O-])c1 | inactive: 6.96%
O=[N+]([O-])c1cc([N+](=O)[O-])c(-c2cnn(-c3ccccc3)c2)c([N+](=O)[O-])c1 | inactive: 11.8%
Cc1nc2ccc3ccccc3c2s1.O=[N+]([O-])c1cc([N+](=O)[O-])c(O)c([N+](=O)[O-])c1 | inactive: 5.05%
CC1=C2N=C(C=C3N=C(C(C)=C4[N-][C@@](C)([C@@H]5N=C1[C@](C)(CCC(=O)NC[C@@H](C)OP(=O)([O-])O[C@H]1[C@@H](O)[C@@H](n6cnc7cc(C)c(C)cc76)O[C@@H]1CO)[C@H]5CC(N)=O)[C@@](C)(CC(N)=O)[C@@H]4CCC(N)=O)[C@@](C)(CC(N)=O)[C@@H]3CCC(N)=O)C(C)(C)[C@@H]2CCC(N)=O.[C-]#N.[Co+3] | inactive: -32.9%
O=[N+]([O-])c1cc([N+](=O)[O-])c(Nc2nnnn2CCO)c([N+](=O)[O-])c1 | inactive: 3.87%
CCOC(=O)C(CC)C1=NC(C)(C)Cc2ccccc21.O=[N+]([O-])c1cc([N+](=O)[O-])c(O)c([N+](=O)[O-])c1 (stereo not given) | inactive: -3.64%
COc1ccccc1OP(C)(=O)Nc1c(C)cccc1C (stereo not given) | inactive: 1.8%
CN1CCCCC1COC(=O)C1(O)c2ccccc2CCc2ccccc21 (stereo not given) | inactive: -16.4%
CCCOc1ccc(NP(C)(=O)Oc2ccc(Cl)cc2)cc1 (stereo not given) | inactive: 6.03%
CP(=O)(Nc1ccc(SC(F)(F)F)cc1)Oc1ccccc1 (stereo not given) | inactive: 3.77%
O=C(O)c1cccc(Nc2c([N+](=O)[O-])cc([N+](=O)[O-])cc2[N+](=O)[O-])c1 | inactive: 19.6%
CC1=NCCc2c1[nH]c1ccccc21.O=[N+]([O-])c1cc([N+](=O)[O-])c(O)c([N+](=O)[O-])c1 | inactive: 5.89%
COc1ccccc1OP(C)(=O)Nc1cccc(Br)c1 (stereo not given) | inactive: 13.7%
CCOC(=O)c1ccc(NP(C)(=O)Oc2cc(C)cc(C)c2)cc1 (stereo not given) | inactive: 7.16%
Cc1cc(C)cc(OP(C)(=O)Nc2ccc(C)cc2C)c1 (stereo not given) | inactive: 1.7%
Cc1ccc(C)c(NP(C)(=O)Oc2ccccc2)c1 (stereo not given) | inactive: 3.74%
Cc1cc(C)cc(OP(C)(=O)Nc2ccccn2)c1 (stereo not given) | inactive: 2.91%
CCN(CC)CCCOC(=O)C(O)(c1ccccc1)c1ccccc1 | inactive: 3.95%
O=[N+]([O-])c1cc([N+](=O)[O-])c(Nc2cccnc2)c([N+](=O)[O-])c1 | inactive: 8.21%
O=[N+]([O-])c1ccc2c(c1)C=Nc1ccccc1O2 | inactive: 4.96%
CC(C)(C)c1ccc(OP(C)(=O)Nc2ccc(SC(F)(F)F)cc2)cc1 (stereo not given) | inactive: -3.17%
Cc1cccc(C)c1OP(C)(N)=O (stereo not given) | inactive: 1.52%
COc1ccccc1OP(C)(=O)Nc1ccc(C)cc1 (stereo not given) | inactive: 7.07%

Structure (SMILES) | inhibition
Cc1ccc(NP(C)(=O)Oc2ccccc2)c(C)c1 (stereo not given) | inactive: 7.22%
CCOC(=O)c1ccc(NP(C)(=O)Oc2ccccc2)cc1 (stereo not given) | inactive: 4.14%
Cc1cc(C)cc(OP(C)(N)=O)c1 (stereo not given) | inactive: -4.12%
COc1ccccc1OP(C)(=O)Nc1cc(Cl)ccc1C (stereo not given) | inactive: 5.17%
COc1ccc(OP(C)(=O)Nc2cccc(F)c2)cc1 (stereo not given) | inactive: 5.96%
CP(=S)(Nn1cnnc1)Oc1ccccc1 (stereo not given) | inactive: -2.24%
CP(=O)(Nc1ccccc1Br)Oc1ccccc1 (stereo not given) | inactive: 6.9%
COc1ccccc1OP(C)(=O)Nc1ccccc1 (stereo not given) | inactive: 2.81%
Cc1ccc(Nc2c([N+](=O)[O-])cc([N+](=O)[O-])cc2[N+](=O)[O-])cc1 | inactive: 8.28%
Cc1cccc(C)c1OP(C)(=O)Nc1ccc(SC(F)(F)F)cc1 (stereo not given) | inactive: 1.28%
CP(=O)(Oc1ccccc1)OC(c1ccccc1)C(F)(F)F (stereo not given) | inactive: 7.26%
CP(=O)(NC(=O)Nc1ccccc1)Oc1ccccc1 (stereo not given) | inactive: -7.56%
CCc1ccc(OP(C)(=O)N2CCN(c3ccc([N+](=O)[O-])cc3)CC2)cc1 (stereo not given) | inactive: 5.85%
Cc1cc(C)cc(OP(C)(=O)Nc2ccc(SC(F)(F)F)cc2)c1 (stereo not given) | inactive: 1.18%
CCOC(=O)c1ccc(NP(C)(=O)Oc2ccc(OC)cc2)cc1 (stereo not given) | inactive: 8.1%
CCOP(C)(=S)SCC(=O)NC(C)C(=O)O (stereo not given) | inactive: 6.25%
CP(=O)(Nc1ccccn1)Oc1ccc(Cl)cc1 (stereo not given) | inactive: 9.24%
CCN(CC)CC(O)COC(=O)C(O)(c1ccccc1)C1CCCCC1 (stereo not given) | inactive: 4.95%
COc1ccc(OP(C)(=O)Nc2ccc(Br)cc2)cc1 (stereo not given) | inactive: -1.27%
COc1ccccc1OP(C)(=O)Nc1c(C)n(C)n(-c2ccccc2)c1=O (stereo not given) | inactive: 10.5%
O=C(OCCCN1CCCC1)C(O)(c1ccccc1)C1CCCCC1 (stereo not given) | inactive: 15.5%
CP(=O)(Oc1ccccc1)N1CCOC1=O (stereo not given) | inactive: 3.2%
CCc1ccc(OP(C)(=O)Nc2cccnc2)cc1 (stereo not given) | inactive: -10.5%

Structure (SMILES) | inhibition
COc1ccccc1OP(C)(=O)Nc1ccccc1Br (stereo not given) | inactive: 7.56%
CC(C)(C)c1ccc(OP(C)(=O)O)cc1 | inactive: 5.8%
CP(=O)(Nc1ccc(Cl)cc1)Oc1ccc(F)cc1 (stereo not given) | inactive: 3.39%
CN(C)C(=O)c1c([N+](=O)[O-])cc([N+](=O)[O-])cc1[N+](=O)[O-] | inactive: -6.76%
CCOC(=O)c1ccc(NP(C)(=O)Oc2ccc(Cl)cc2)cc1 (stereo not given) | inactive: 8.09%
CP(=O)(OC12CC3CC(CC(C3)C1)C2)OC12CC3CC(CC(C3)C1)C2 | inactive: 9.2%
O=C1C(O)=C([N+](=O)[O-])C(=O)C(O)=C1[N+](=O)[O-] | inactive: 22.9%
Cc1cc(C)cc(OP(C)(=O)Nc2cccc(C(F)(F)F)c2)c1 (stereo not given) | inactive: 4.51%
COc1ccccc1OP(C)(=O)Nc1ccc(C)c(C)c1 (stereo not given) | inactive: 13.4%
COc1ccc(OP(C)(=O)Nc2ccccc2Br)cc1 (stereo not given) | inactive: 5.97%
CP(=O)(Nc1ccc(Cl)cc1Cl)Oc1ccccc1 (stereo not given) | inactive: 14%
CP(=O)(OCCOc1ccccc1)OCCOc1ccccc1 | inactive: 3.6%
COc1ccccc1OP(C)(=O)Nc1ccc(Br)cc1 (stereo not given) | inactive: 9.26%
COc1ccc(OP(C)(=O)Nc2ccccn2)cc1 (stereo not given) | inactive: 5.97%
CN(C)CCOC(=O)C(O)(c1ccccc1)C1CCCC1 (stereo not given) | inactive: 3.89%
Cc1c(NP(C)(=O)Oc2ccc(C(C)C)cc2)c(=O)n(-c2ccccc2)n1C (stereo not given) | inactive: 3.31%
O=[N+]([O-])c1cc([N+](=O)[O-])c(Nc2ccccn2)c([N+](=O)[O-])c1 | inactive: 6.3%
CP(=O)(Nc1ccccn1)Oc1ccccc1 (stereo not given) | inactive: 4.04%
COc1ccccc1OP(C)(=O)Nc1ccc(C)cc1C (stereo not given) | inactive: 4.63%
CCc1ccc(OP(C)(=O)O)cc1 | inactive: 0.95%
O=[N+]([O-])c1cc([N+](=O)[O-])c(Nc2ccc(Cl)cc2)c([N+](=O)[O-])c1 | inactive: 7.66%
CP(=O)(Nc1ccccc1F)Oc1ccccc1 (stereo not given) | inactive: -0.11%
CC(C)c1ccc(OP(C)(=O)Nc2ccc(SC(F)(F)F)cc2)cc1 (stereo not given) | inactive: 4%

Structure (SMILES) | inhibition
O=C(OC1CN2CCC1CC2)c1ccc([N+](=O)[O-])cc1 (stereo not given) | inactive: -10.8%
O=C(OCCN1CCN(CCOCc2ccccc2)CC1)C(O)(c1ccccc1)c1ccccc1 | inactive: 0.86%
COc1ccc2c(c1O)-c1c(O)c(OC)cc3c1[C@H](C2)[N+](C)(C)CC3.O=[N+]([O-])c1cc([N+](=O)[O-])c([O-])c([N+](=O)[O-])c1[O-] | inactive: 13.5%
CCOC(=O)c1ccc(NP(C)(=O)Oc2ccc(F)cc2)cc1 (stereo not given) | inactive: 3.72%
COc1ccc(OP(C)(=O)Nc2ccc(SC(F)(F)F)cc2)cc1 (stereo not given) | inactive: 6.52%
Cc1c([N+](=O)[O-])cc([N+](=O)[O-])c(Br)c1[N+](=O)[O-] | inactive: 5.34%
CCN(CC)CCCOC(=O)C(O)(c1ccccc1)C1CCCCC1 (stereo not given) | inactive: 1.48%
CP(=O)(Nc1ccccc1)Oc1ccc(F)cc1 (stereo not given) | inactive: 1.08%
CCCCCOc1ccc(NP(C)(=O)Oc2ccc(Cl)cc2Cl)cc1 (stereo not given) | inactive: 11.4%
O=[N+]([O-])c1cc([N+](=O)[O-])c(OC2CCCCC2O)c([N+](=O)[O-])c1 (stereo not given) | inactive: 6.62%
COc1ccc(OP(C)(=O)Nc2cccc(Br)c2)cc1 (stereo not given) | inactive: 8.1%
CN(C)CCOC(=O)C(O)(c1ccccc1)C1CCCCC1 (stereo not given) | inactive: 10.5%
COc1ccc(NP(C)(=O)Oc2ccccc2OC)cc1 (stereo not given) | inactive: 4.15%
O=[N+]([O-])c1ccc(OP2(=O)COCCO2)cc1 (stereo not given) | inactive: 8.83%
Cc1cc(-c2cccc3ccccc23)c(C)cn1.O=[N+]([O-])c1cc([N+](=O)[O-])c(O)c([N+](=O)[O-])c1 | inactive: 8.7%
O=[N+]([O-])c1cc([N+](=O)[O-])c(NCC2CCS(=O)(=O)C2)c([N+](=O)[O-])c1 (stereo not given) | inactive: 7.81%
Cc1c(C(c2ccc3c(c2)OCO3)c2c(C)n(C)n(-c3ccccc3)c2=O)c(=O)n(-c2ccccc2)n1C.O=[N+]([O-])c1cc([N+](=O)[O-])c(O)c([N+](=O)[O-])c1 | inactive: 1.21%
CP(=O)(Nc1ccc(SC(F)(F)F)cc1)Oc1ccc(F)cc1 (stereo not given) | inactive: -2.88%
CCOP(C)(=S)SCC(=O)NC(C)(CC)C(=O)O (stereo not given) | inactive: 4.91%
CP(=O)(Nc1ccc2c(c1)OCCO2)Oc1ccccc1 (stereo not given) | inactive: 18%
Cc1ccccc1NP(C)(=O)Nc1ccccc1C | inactive: 4.01%
